The text below walks through data of publication PMC4776319 (Water research, 2015).

Protein sequences, listed by entry. Tags and fused reporters are not part of them. Residues count along the entry.
UniProt P37231, 238-505 limits assumed: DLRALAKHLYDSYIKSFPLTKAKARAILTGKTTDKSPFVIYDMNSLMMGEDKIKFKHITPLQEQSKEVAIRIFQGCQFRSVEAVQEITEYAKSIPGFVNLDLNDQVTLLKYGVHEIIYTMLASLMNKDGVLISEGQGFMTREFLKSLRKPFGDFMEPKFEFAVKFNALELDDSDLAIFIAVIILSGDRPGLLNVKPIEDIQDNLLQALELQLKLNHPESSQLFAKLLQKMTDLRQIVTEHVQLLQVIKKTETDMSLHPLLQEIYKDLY

Structures are written as SMILES.

In the test the target is peroxisome proliferator-activated receptor (PPARγ) (Homo sapiens, UniProt P37231). The note with it: reference chemical.

As for `CN(CCOc1ccc(CC2SC(=O)NC2=O)cc1)c1ccccn1` (stereo not shown) [Rosiglitazone], the EC10 result is listed as “EC10 (0.33 nM); EC50 (3.9 nM)”.
